Literature values as cited in patent publication US20240016813A1, “METHODS OF TREATING SYMPTOMS OF CORONAVIRUS INFECTION” (Accencio LLC, priority 2020, published 2024).
Like-named read-outs stand apart in the source and are kept apart here.

Target: T1, CXCR3 (Homo sapiens, UniProt P49682)
T1 sequence (P49682 1-368): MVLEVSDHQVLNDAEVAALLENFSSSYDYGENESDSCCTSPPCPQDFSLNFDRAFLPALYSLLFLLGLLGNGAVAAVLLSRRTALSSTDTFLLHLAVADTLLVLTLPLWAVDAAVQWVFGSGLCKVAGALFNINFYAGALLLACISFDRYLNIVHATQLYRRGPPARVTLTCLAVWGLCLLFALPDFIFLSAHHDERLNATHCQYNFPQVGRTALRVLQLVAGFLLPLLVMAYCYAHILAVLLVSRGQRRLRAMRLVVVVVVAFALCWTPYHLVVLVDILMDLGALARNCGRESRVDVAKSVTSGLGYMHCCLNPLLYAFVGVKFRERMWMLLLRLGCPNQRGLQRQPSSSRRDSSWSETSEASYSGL

In the case of `CCOc1ccc(-n2c(C(C)N(Cc3cccnc3)C(=O)Cc3ccc(OC(F)(F)F)cc3)nc3ncccc3c2=O)cc1` (centres unmarked) [AMG 487, N-(1-(3-(4-ethoxyphenyl)-4-oxo-3,4-dihydropyrido[2,3-d]pyrimidin-2-yl)ethyl)-N-(pyridin-3-ylmethyl)-2-(4-(trifluoromethoxy)phenyl)acetamide], the IC50 (ligand CXCL10, read-out: IC50, inhibits the binding of CXCL10 to CXCR3) is given as 8 nM and the IC50 (ligand CXCL11, read-out: IC50, inhibits the binding of CXCL11 to CXCR3) is given as 8.2 nM.
